Patent publication US11230549B2, “Quinolino-pyrrolidin-2-one derivative and application thereof” (MEDSHINE DISCOVERY INC., priority 2018, dated 2022)

Sequences of proteins named here, by UniProt entry; tags and fusion partners are left off.
UniProt P78527, whole entry: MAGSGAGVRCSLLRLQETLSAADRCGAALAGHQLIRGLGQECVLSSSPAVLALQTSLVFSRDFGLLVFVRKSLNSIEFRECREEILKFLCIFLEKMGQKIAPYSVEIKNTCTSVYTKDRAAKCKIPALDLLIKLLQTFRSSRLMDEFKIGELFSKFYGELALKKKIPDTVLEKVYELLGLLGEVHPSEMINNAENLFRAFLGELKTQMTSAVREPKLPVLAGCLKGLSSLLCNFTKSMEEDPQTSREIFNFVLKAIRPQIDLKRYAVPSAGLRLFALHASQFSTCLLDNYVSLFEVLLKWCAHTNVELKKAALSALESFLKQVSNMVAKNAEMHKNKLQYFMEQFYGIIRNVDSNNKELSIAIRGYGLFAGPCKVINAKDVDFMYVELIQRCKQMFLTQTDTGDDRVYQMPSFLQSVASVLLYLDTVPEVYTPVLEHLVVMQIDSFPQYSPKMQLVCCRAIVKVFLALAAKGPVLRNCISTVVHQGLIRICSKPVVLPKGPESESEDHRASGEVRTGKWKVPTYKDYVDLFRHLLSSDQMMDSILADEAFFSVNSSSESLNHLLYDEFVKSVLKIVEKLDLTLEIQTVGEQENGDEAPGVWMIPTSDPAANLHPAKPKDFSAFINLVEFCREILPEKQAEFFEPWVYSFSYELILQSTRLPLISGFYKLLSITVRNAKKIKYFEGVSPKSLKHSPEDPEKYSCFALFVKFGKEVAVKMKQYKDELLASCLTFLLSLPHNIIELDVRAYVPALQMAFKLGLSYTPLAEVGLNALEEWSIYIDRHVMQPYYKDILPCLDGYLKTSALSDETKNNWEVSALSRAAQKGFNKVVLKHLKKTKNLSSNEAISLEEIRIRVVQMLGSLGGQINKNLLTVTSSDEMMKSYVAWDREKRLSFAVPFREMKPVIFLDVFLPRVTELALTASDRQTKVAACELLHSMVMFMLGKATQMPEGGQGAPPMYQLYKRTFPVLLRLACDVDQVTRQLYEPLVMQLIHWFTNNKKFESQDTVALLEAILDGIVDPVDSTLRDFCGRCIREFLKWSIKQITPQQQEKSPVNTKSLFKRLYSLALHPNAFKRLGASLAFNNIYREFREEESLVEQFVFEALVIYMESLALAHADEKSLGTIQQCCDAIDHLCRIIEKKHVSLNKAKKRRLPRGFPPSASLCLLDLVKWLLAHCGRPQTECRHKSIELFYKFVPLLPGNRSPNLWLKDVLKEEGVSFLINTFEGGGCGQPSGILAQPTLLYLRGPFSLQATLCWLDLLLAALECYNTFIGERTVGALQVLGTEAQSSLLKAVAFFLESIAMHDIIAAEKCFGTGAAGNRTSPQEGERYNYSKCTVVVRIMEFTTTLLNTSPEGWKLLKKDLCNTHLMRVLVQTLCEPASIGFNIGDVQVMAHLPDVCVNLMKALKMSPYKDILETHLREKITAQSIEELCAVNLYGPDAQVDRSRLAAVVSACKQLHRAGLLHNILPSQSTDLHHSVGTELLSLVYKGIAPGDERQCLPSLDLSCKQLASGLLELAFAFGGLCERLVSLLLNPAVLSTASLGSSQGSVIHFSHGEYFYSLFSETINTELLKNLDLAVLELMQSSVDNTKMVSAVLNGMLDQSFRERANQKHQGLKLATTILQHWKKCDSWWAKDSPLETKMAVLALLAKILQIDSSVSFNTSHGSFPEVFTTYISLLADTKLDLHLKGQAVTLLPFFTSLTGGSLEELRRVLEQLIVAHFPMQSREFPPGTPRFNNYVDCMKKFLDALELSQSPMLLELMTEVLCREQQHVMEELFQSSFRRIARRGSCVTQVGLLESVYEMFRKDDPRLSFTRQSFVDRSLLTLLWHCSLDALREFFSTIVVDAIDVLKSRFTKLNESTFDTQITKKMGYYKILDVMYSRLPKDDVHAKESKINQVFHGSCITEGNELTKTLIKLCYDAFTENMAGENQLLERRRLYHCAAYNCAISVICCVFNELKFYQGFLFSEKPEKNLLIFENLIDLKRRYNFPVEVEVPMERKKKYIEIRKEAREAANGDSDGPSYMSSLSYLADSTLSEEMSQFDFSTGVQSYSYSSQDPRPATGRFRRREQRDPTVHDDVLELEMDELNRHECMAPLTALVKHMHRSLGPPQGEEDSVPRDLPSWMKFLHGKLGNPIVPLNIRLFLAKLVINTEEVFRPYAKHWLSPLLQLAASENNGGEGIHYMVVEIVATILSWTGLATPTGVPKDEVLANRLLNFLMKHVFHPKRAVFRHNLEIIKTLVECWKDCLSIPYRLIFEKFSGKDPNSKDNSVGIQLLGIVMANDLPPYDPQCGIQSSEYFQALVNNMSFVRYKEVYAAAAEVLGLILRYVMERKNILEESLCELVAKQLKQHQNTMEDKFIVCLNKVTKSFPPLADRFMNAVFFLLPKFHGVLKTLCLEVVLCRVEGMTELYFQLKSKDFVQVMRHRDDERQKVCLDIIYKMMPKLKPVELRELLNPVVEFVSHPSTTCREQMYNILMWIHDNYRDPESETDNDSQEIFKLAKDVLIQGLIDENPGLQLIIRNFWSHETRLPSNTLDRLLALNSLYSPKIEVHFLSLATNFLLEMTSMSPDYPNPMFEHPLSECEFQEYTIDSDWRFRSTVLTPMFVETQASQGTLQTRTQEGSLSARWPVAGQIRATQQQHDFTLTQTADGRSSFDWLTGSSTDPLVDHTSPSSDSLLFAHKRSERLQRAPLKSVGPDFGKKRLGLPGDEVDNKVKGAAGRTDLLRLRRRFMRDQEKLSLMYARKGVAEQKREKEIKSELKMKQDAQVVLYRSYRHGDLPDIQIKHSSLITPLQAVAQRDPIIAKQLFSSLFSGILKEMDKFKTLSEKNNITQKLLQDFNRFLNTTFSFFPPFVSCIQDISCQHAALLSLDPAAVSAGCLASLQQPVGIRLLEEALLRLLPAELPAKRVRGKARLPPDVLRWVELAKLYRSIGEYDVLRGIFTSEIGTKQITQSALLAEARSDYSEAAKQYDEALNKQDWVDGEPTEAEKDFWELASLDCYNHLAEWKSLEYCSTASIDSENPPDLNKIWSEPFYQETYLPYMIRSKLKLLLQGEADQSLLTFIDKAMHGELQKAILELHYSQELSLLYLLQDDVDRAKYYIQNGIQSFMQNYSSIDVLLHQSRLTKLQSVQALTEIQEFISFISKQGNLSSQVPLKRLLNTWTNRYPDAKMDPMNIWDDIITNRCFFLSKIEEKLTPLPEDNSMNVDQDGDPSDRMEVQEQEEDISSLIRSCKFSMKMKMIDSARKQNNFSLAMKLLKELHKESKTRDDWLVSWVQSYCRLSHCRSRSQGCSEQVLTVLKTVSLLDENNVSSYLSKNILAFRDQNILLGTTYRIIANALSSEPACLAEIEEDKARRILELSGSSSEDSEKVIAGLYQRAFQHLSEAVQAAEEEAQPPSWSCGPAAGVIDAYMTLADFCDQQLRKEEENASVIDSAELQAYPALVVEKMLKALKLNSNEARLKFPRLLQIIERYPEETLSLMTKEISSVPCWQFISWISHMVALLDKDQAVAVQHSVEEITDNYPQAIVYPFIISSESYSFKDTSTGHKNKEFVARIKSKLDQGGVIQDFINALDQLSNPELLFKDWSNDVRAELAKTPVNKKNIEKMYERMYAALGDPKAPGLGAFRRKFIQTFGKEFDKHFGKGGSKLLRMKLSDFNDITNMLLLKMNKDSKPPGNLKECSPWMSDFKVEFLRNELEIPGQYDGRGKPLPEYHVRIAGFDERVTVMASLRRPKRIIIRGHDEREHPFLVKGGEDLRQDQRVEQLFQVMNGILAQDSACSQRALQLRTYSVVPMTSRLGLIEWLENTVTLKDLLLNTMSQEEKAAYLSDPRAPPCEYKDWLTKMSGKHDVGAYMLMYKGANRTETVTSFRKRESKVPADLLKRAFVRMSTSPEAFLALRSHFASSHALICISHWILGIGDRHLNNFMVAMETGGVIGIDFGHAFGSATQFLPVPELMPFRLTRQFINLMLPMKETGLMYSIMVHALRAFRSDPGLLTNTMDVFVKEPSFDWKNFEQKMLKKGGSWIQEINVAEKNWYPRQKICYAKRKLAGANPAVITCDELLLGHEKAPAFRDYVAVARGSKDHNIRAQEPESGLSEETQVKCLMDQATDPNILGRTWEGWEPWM

Biological target: T1, Human-derived DNA-PK kinase (Homo sapiens, UniProt P78527)
T1 construct: Eurofins (contract laboratory that ran the test)
Assay: DNA-PK enzyme activity test (HTRF, phosphorylation of GST-cMyc-p53)
Type: biochemical
Experimental: The compounds of the present disclosure used for experiments are all prepared in-house, and their chemical names and structural formulas are shown in the preparation examples of each compound. The experimental tests were carried out by a UK company Eurofins, and the experimental results were provided by the company. The following experimental processes were also provided by the company.
Human-derived DNA-PK kinase was incubated in a buffer solution containing 50 nM of GST-cMyc-p53 and Mg/ATP. The concentration of Mg/ATP was determined according to different needs. The reaction was initiated by adding a Mg/ATP complex. After incubating for about 30 minutes at room temperature, a stop solution containing EDTA was added to stop the reaction. Finally, for phosphorylated p53, a detection buffer containing a d2-labeled anti-GST monoclonal antibody and an europium-labeled phosphorylated Ser15 antibody was added. Then time-resolved fluorescence mode was used to read a detection disk, and a homogeneous time-resolved fluorescence (HTRF) signal was obtained by calculating formula HTRF=10000×(Em665 nm/Em620 nm).

`CN(C)CCCOc1ccc(-c2ccc3ncc4c(c3c2)n(C2CCOCC2)c(=O)n4C)cn1` [AZD0156, reference compound] showed an IC50 of 58 nM.
